ChEMBL document CHEMBL1145821, “Dihydrofolate reductase mutant with exceptional resistance to methotrexate but not to trimetrexate” (J Med Chem, 2003)

What was measured:
[1] = target: T1, Dihydrofolate reductase (Mus musculus, UniProt P00375); assay: Inhibitory constant for F31A/F34A murine dihydrofolate reductase (DHFR)
T1 sequence (P00375 whole entry): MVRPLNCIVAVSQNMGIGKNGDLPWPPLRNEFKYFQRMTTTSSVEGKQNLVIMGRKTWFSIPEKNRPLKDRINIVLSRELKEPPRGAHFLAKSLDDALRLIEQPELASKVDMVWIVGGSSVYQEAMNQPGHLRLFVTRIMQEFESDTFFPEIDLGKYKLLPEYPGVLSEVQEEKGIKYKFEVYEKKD

[2] = target: T1, Dihydrofolate reductase; assay: Inhibitory constant for murine Wild-type dihydrofolate reductase (DHFR)

## Nc1nc(N)c2nc(CNc3ccc(C(=O)NC(CCCNC(=O)c4ccccc4C(=O)O)C(=O)O)cc3)cnc2n1 (configuration not stated)
[1]
  Ki: 25.9 nM
[2]
  Ki: 0.042 nM
